This assay deals with GluR3i S1S2 domain (Rattus norvegicus, UniProt P19492, DEL531-655/S657T/V656G). The assay can be described thus: biochemical.

By UniProt entry, the sequences of proteins in these tests, tags left out. Where a name states a change or a piece, a line headed by the entry shows the natural chain unless it says otherwise.
UniProt P19492: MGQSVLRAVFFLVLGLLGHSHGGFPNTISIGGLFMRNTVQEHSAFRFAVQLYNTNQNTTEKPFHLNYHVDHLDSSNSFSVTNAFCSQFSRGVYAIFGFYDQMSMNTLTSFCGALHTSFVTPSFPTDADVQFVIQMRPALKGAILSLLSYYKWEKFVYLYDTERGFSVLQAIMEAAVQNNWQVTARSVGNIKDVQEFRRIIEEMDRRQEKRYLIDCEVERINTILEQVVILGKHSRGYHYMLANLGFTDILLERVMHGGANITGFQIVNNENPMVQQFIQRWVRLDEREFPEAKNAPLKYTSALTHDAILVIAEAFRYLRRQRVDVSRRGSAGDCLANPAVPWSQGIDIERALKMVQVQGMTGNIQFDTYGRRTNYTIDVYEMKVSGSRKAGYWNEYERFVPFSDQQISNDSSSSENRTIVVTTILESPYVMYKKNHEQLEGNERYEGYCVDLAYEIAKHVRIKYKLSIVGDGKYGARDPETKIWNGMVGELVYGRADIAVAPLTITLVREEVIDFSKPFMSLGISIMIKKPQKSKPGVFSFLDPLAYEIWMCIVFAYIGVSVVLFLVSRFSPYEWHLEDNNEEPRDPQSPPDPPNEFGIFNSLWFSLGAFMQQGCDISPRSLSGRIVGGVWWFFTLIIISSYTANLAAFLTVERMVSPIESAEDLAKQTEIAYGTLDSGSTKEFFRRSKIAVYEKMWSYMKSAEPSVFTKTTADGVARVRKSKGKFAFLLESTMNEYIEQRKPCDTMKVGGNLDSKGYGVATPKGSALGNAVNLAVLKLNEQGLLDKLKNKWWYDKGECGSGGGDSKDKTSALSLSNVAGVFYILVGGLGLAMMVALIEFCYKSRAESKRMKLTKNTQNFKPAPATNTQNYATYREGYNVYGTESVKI

The term Kd denotes the concentration at which binding is half-saturated. A low value points to tighter binding.

In turn, `Cc1onc(O)c1CC(N)C(=O)O` (stereo not drawn) [[^3H]AMPA, α-amino-3-hydroxy-5-methyl-4-isoxazole-propionic acid] came in with a dissociation constant Kd of 43 ± 5 nM.

Source of the values: PMC2732992 (Proteins, 2009).
